# Data from patent publication US20260220796A1 (published 2026).
# Protein sequences, listed by entry. Tags and fused reporters are not part of them.
# UniProt P03372, whole entry: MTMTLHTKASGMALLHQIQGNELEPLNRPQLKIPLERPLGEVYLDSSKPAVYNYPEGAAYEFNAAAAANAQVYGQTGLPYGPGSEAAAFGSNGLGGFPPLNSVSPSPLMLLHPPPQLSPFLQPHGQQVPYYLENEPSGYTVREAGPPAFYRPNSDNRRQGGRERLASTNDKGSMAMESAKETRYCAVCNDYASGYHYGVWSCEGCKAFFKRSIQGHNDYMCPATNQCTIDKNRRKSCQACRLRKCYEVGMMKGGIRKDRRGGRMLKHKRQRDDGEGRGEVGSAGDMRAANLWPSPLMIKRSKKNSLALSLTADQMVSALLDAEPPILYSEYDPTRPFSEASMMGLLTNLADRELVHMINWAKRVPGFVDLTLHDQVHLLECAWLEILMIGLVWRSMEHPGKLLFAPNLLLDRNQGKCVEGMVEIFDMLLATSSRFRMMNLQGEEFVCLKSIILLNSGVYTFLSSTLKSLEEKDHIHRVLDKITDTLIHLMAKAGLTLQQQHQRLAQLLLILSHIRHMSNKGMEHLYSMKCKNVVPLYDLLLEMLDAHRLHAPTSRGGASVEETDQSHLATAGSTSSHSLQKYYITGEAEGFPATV
# Tests used:
# Estrogen Receptor (ER) = Estrogen Receptor (ER) (Homo sapiens, UniProt P03372); test: residence time imaging of ER-Halo (track length survival); assay type: cell-based; settings: track length distribution, FIG. 16G, 18E, 21E
# [1] = biological target: T1, progesterone receptor (PR) (Homo sapiens, UniProt P06401); test: htSMT of Halo-PR in U2OS cells; assay type: cell-based; settings: 1 μM antagonist, absence or presence of cognate agonist, FIG. 36B
# T1 sequence (P06401 1-933): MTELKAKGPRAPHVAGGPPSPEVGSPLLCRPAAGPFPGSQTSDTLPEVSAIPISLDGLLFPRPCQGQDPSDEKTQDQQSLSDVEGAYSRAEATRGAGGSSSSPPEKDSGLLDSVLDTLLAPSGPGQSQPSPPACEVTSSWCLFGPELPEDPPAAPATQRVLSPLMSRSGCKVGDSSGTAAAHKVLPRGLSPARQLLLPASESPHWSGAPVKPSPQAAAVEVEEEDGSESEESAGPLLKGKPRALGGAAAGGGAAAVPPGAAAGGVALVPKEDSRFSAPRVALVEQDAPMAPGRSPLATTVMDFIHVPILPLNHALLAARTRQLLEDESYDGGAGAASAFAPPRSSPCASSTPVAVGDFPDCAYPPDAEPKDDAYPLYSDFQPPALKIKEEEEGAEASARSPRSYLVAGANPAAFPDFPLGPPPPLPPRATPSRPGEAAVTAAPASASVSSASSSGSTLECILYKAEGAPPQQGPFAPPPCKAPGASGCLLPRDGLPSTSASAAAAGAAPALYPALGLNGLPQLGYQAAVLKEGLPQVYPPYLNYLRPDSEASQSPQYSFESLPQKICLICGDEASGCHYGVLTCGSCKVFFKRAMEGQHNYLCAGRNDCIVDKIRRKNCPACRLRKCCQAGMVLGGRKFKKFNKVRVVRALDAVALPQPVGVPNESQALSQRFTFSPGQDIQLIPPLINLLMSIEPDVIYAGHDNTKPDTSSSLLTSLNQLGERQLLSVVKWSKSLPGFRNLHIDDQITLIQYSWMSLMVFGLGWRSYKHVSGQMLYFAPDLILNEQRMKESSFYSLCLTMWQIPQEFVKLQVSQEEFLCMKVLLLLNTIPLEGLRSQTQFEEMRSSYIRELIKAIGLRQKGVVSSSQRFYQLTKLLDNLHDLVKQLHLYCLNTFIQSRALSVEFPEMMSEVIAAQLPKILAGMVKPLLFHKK
effect on PR chromatin binding (change in fbound) [1],SMILES,binding times (relative ER residence time) (Estrogen Receptor (ER))
–,C[C@]12CC[C@@H]3c4ccc(O)cc4C[C@@H](CCCCCCCCC[S+]([O-])CCCC(F)(F)C(F)(F)F)[C@H]3[C@@H]1CC[C@@H]2O (some centres unmarked),longer binding times compared with other ER modulators
behaves similarly to ER antagonists,CC#C[C@]1(O)CC[C@H]2[C@@H]3CCC4=CC(=O)CCC4=C3[C@@H](c3ccc(N(C)C)cc3)C[C@@]21C [mifepristone],–
